Values of other authors as cited in patent US20140100183A1, “CENTRAL ADMINISTRATION OF STABLE FORMULATIONS OF THERAPEUTIC AGENTS FOR CNS CONDITIONS” (The Regents of the University of Colorado, a body corporate, priority 2006, published 2014).

Conditions: qualitative, solvents as given in the source; cited from earlier work

Substance: Semicarbazide hydrochloride [NORTRIPTYLINE]
- Comments: solubility: very slightly soluble in water and sparingly soluble in alcohol
